The target in this assay is human monoacylglycerol lipase (MGL) (Homo sapiens, UniProt Q99685). Format: biochemical.

Amino acid sequences for entries named in this document (tags omitted).
UniProt Q99685, whole entry: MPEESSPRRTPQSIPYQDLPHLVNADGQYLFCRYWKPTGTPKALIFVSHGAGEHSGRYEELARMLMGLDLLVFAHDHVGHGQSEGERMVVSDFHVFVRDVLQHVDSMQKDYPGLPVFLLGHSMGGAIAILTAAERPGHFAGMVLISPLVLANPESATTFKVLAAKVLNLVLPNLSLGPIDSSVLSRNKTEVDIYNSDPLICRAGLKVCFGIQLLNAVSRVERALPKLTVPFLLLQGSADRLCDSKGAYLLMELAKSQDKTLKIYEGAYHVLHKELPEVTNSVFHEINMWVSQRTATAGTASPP

The structures appear in SMILES notation.

The IC50 is the concentration that inhibits the measured activity by half. `O=C(Oc1ccc([N+](=O)[O-])cc1)N1CCN(Cc2cccc(Oc3ccccc3)c2)CC1` [JZL195, 4‐nitrophenyl 4‐(3‐phenoxy benzyl) piperazine ‐1‐carboxylate]: it took 64.8 nM to reach half-maximal inhibition (IC50).

Values taken from publication PMC11436673 (Journal of Experimental Pharmacology, 2024).
